In US20090226395A1, “Pharmaceutical compositions of beta-lapachone and beta-lapachone analogs with improved tumor targeting potential” (ArQule, Inc., priority 2004, published 2009):

Test: Tumor and plasma levels of free and total β-lapachone in HT29 tumor bearing Ncr NU/NU mice
Format: in vivo
Conditions: iv administration of the conjugate, FIGS. 3, 5A and B
Description: Chromatographic analysis of plasma samples to determine plasma β-Lapachone levels is conducted employing a Zorbax SB C8 HPLC column (2.1×30 mm, 5μ particle size). The chromatographic system employs a CTC PAL Leap autoinjector (Leap Technologies, Carrboro, N.C.) with an Agilent (Agilent Technologies, Palo Alto, Calif.) 1100 HPLC system interfaced to a Micromass Quattro Ultima (Waters Corporation, Milford, Mass., USA) triple quadrapole mass spectrometer is employed to analyze samples. Chromatographic separations were conducted employing a gradient formed from mobile phase A (0.1% formic acid (FA) in water) and mobile phase B (0.1% FA in acetonitrile). The gradient program employed for the chromatographic separation is described in Table 3. The injection volume employed is 10 μL. The mass spectrometer is operated using ESI (electrospray ionization) positive in MRM (multiple reaction monitoring) mode. Mass transitions are monitored, respectively, for β-lapachone-D6 (Internal Standard, IS)=249>159, β-lapachone=243>159, and β-lapachone-ketal=317>243. Argon is used as the collision gas and Nitrogen is used as the desolvation gas. The collision cell gas pressure is 1.7×10^−3 mbar. The cone gas flow is 108 L/h and the desolvation gas flow is 537 L/h. The source temperature is set to 110° C. and the desolvation temperature is 400° C. […]

For “5-(acetyloxy)-2,2-dimethyl-3,4-dihydro-2H-benzo[h]chromen-6-yl glycinate γ-poly-L-glutamate [Sample B]”, which “persistence of therapeutic levels of β-lapachone in both tumors and plasma” value is on record?
The value was “about 24 hours”.
